Measured values published in patent US20200368364A1, “CYSTEINE PEPTIDE-ENABLED ANTIBODIES” (City of Hope, priority 2016, published 2020).

System: SKBR3 cells
Assay: Cell viability (CellTiter-Glo) for DM1 and MMAE conjugates
Assay type: cell-based
Details: SKBR3, a HER2 positive tumor cell line; compared with the ADCs
Experimental: Mertansine (DM1) and monomethyl auristatin E (MMAE) were added to the acetylated SQFDA(Ph)2[…] (SEQ ID NO:28) meditope through the lysine amine.
Cell viability studies for the DM1 and MMAE conjugations: CellTiter-Glo® Luminescent Assay from Promega (#G7571) was used to detect cell viability. BT-474 or SKBR3 were seeded in white-walled 96-well plate and each well contained 100 μl of 10,000 BT-474 cells or 7,000 SKBR3 cells. Seeded cells were incubated at 37° C., 5% CO2 overnight for adherence. For the treatment, drugs with two fold of final concentration were prepared and 100 μL of drugs were added directly to each well. At 72 h, plates were equilibrated at room temperature and CellTiter Glo® Reagent was added to each well for cell lysis and luminescence reaction for 10 min. The luminescence was read by Biotek's Synergy 4 multi-detection microplate reader.

## trastuzumab [clinical trastuzumab]
  tumor cell lysis: much less effective
